According to paper PMC7150766 (Viruses, 2020):

Tested on: splenocytes from CVB3-infected A/J mice
Assay: Proliferative response of splenocytes from CVB3-infected mice to VP1 epitopes
Format: cell-based
Conditions: day 21 post-infection, peptide 2 days, then 3[H] thymidine 16 h, p ≤ 0.0001 for VP1 681–700 and VP1 721–740, Figure 4a

## VNTFVHESLADVQA [RNase 43–56, bovine ribonuclease (RNase) 43–56, irrelevant control peptide]
  Proliferative response (in words): non-responsive
